Laboratory results taken from patent publication US4743587A, “Hydroxamic acid based collagenase inhibitors” (G. D. Searle & Co., priority 1986, dated 1988).

These compounds were tested against T1, Human Rheumatoid Synovial Collagenase (Homo sapiens, UniProt P03956) (assay: Collagenase inhibition (acetyl 14C collagen hydrolysis, procedure of Cawston and Barrett)). Conditions: incubated at 37° C. for 16 hours with native acetyl 14C collagen and collagenase, Tris HCl-CaCl2, pH 7.6.
T1 construct: from tissue
T1 sequence (P03956 100-469): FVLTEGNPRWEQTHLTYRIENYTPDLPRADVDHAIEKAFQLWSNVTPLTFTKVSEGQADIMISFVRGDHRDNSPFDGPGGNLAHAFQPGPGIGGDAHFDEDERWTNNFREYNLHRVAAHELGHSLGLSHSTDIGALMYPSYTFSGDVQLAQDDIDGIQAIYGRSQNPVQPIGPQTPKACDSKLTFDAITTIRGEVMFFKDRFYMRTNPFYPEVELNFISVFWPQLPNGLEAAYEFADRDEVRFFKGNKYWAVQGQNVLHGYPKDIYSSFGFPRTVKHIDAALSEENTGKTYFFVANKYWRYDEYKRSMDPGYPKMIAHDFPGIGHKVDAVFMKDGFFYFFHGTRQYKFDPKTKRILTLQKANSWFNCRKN
Type: biochemical
Method: This was determined following the procedure of Cawston and Barrett, (Anal. […] The collagen is acetyl ^14 C collagen. The samples are centrifuged to sediment undigested collagen and an aliquot of the radioactive supernatant removed for assay on a scintillation counter as a measure of hydrolysis.

Compound	IC50 [nM]
CNC(=O)[C@H](Cc1ccc(OC)cc1)NC(=O)C(CC(=O)NO)CC(C)C (single isomer, unassigned) [2(B), N-[3-(N'-Hydroxycarboxamido)-2-(2-methylpropyl)propanoyl]-O-methyl-L-tyrosine N-Methylamide]	4000
CNC(=O)[C@H](Cc1ccc(OC)cc1)NC(=O)C(CC(=O)NO)CC(C)C (single isomer, unassigned) [2(A), N-[3-(N'-Hydroxycarboxamido)-2-(2-methylpropyl)propanoyl]-O-methyl-L-tyrosine N-Methylamide]	20
CNC(=O)[C@H](Cc1ccc(OC)cc1)NC(=O)C(CC(=O)NO)CC(C)C (stereo partly drawn) [Example 1, N-[3-(N'-Hydroxycarboxamido)-2-(2-methylpropyl)propanoyl]-O-methyl-L-tyrosine N-Methylamide]	100
